Protein sequences, listed by entry. Tags and fused reporters are not part of them. Lines headed by an entry give the natural chain unless they say otherwise; changes in a name come on top.
UniProt Q9Y6L6: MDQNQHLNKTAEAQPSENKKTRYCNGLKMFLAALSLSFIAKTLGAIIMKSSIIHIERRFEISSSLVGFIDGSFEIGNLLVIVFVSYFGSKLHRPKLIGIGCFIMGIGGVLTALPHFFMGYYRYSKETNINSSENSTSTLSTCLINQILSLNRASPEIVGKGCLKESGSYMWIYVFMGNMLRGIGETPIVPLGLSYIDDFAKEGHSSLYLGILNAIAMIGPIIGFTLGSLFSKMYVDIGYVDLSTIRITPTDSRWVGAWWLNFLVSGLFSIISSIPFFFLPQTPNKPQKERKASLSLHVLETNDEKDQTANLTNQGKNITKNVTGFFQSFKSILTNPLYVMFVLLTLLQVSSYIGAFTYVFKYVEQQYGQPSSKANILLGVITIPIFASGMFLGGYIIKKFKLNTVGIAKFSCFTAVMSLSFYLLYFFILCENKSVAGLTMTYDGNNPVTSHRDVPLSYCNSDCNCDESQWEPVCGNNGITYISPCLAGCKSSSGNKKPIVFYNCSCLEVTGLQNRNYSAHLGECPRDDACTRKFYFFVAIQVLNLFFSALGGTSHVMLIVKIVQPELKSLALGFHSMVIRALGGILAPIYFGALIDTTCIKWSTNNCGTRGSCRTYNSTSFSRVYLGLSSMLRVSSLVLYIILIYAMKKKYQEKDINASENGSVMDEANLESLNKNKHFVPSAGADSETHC

In paper PMC3264873 (Pharmaceutical Research, 2011):

Molecular target: OATP1B1 (Homo sapiens, UniProt Q9Y6L6)
Test: Screening for inhibition of OATP1B1-mediated estradiol-17β-glucuronide uptake
Conditions: 20 μM test compound

With `OCCN(CCO)c1nc(N2CCCCC2)c2nc(N(CCO)CCO)nc(N3CCCCC3)c2n1` [Dipyridamole] as the compound, how does the “Classification as OATP1B1 inhibitor (more than 50% inhibition of E17βG uptake)” value read?
Its value is “inhibitors”.
